The text below walks through data of ChEMBL document CHEMBL1151884, “Nuclease resistant methylphosphonate-DNA/LNA chimeric oligonucleotides” (2009).

Assay [1] concerns Nucleic Acid. In words: Binding affinity to DNA assessed as change in melting temperature in presence of 30 mM NaCl.
Assay [2] relates to Nucleic Acid. The assay can be described thus: Binding affinity to RNA assessed as change in melting temperature in presence of 30 mM NaCl.
Assay [3] concerns Nucleic Acid. In words: Binding affinity to DNA assessed as change in melting temperature in presence of 120 mM NaCl.
Assay [4] has as its system Nucleic Acid. In words: Binding affinity to RNA assessed as change in melting temperature in presence of 120 mM NaCl.

Turning to `Cc1cn([C@@H]2O[C@@]3(COP(=O)(O)O[C@H]4C[C@H](n5cnc6c(N)ncnc65)O[C@@H]4COP(=O)(O)O[C@H]4C[C@H](n5cnc6c(=O)[nH]c(N)nc65)O[C@@H]4COP(=O)(O)O[C@H]4[C@H]5OC[C@]4(COP(=O)(O)O[C@H]4C[C@H](n6cnc7c(=O)[nH]c(N)nc76)O[C@@H]4CO)O[C@H]5n4cc(C)c(=O)[nH]c4=O)CO[C@@H]2[C@@H]3OP(=O)(O)OC[C@H]2O[C@@H](n3cnc4c(N)ncnc43)C[C@@H]2OP(=O)(O)OC[C@@]23CO[C@@H]([C@H](n4cc(C)c(=O)[nH]c4=O)O2)[C@@H]3OP(=O)(O)OC[C@H]2O[C@@H](n3cnc4c(=O)[nH]c(N)nc43)C[C@@H]2OP(=O)(O)OC[C@H]2O[C@@H](n3ccc(N)nc3=O)C[C@@H]2O)c(=O)[nH]c1=O`, the ΔTm – broadly, the change in melting temperature against a reference sample – with Nucleic Acid [1] was 14 °C; in the assay on Nucleic Acid [2] it was 20 °C; in the assay on Nucleic Acid [3], 15 °C; in the assay on Nucleic Acid [4], 26 °C.

For the compound `Cc1cn([C@H]2C[C@H](OP(=O)(O)OC[C@H]3O[C@@H](n4cnc5c(=O)[nH]c(N)nc54)C[C@@H]3OP(=O)(O)OC[C@H]3O[C@@H](n4ccc(N)nc4=O)C[C@@H]3O)[C@@H](COP(=O)(O)O[C@H]3C[C@H](n4cnc5c(N)ncnc54)O[C@@H]3COP(=O)(O)O[C@H]3C[C@H](n4cc(C)c(=O)[nH]c4=O)O[C@@H]3COP(=O)(O)O[C@H]3C[C@H](n4cnc5c(N)ncnc54)O[C@@H]3COP(=O)(O)O[C@H]3C[C@H](n4cnc5c(=O)[nH]c(N)nc54)O[C@@H]3COP(=O)(O)O[C@H]3C[C@H](n4cc(C)c(=O)[nH]c4=O)O[C@@H]3COP(=O)(O)O[C@H]3C[C@H](n4cnc5c(=O)[nH]c(N)nc54)O[C@@H]3CO)O2)c(=O)[nH]c1=O`, the ΔTm in the assay with Nucleic Acid [1], in the assay with Nucleic Acid [2], with Nucleic Acid [3] and in the assay on Nucleic Acid [4] was 0 °C each time.
